From patent US20170095445A1 (priority 2012, published 2017)

What was measured:
[1] = test system: Cl2 inhalational lung injury (CILI); test: Murine Cl2 exposure model, R-901 12 hourly regimen, pulmonary MPO and histology; conditions: 400 ppm Cl2 30 minutes, 30 mg/kg/dose IP 12 hourly from 15 minutes post exposure, 24 hours
[2] = test system: Cl2 inhalational lung injury (CILI); test: Survival study after exposure to a severe CILI model; conditions: 60 minute exposure to 400 ppm Cl2
[3] = test system: Cl2 inhalational lung injury (CILI); test: Severe CILI model (60 minute exposure), lung histology; conditions: 60 minute exposure to 400 ppm Cl2, 2 and 6 hours post exposure, 24 hours post exposure
[4] = test system: Cl2 inhalational lung injury (CILI); test: Murine Cl2 exposure model (30 minute exposure), lung histology; conditions: 30 minute exposure to 400 ppm Cl2, 24 hours post exposure
[5] = in HPCD 2 and 6 hours post exposure, 6, 20 or 40 mg/kg/dose
[6] = in saline 2 and 6 hours post exposure, 3, 10 or 30 mg/kg/dose

CC(=O)NC(CS)C(=O)N1CCCC1C(=O)NC(CS)C(N)=O (stereo not shown) [R-901, 1-(2-acetamido-3-mercaptopropanoyl)-N-(1-amino-3-mercapto-1-oxopropan-2-yl) pyrrolidine-2-carboxamide]
reduction of histological damage relative to placebo ([1]; n.s.): 20% | reduction of the elevation in pulmonary MPO relative to placebo ([1]; p<0.0001): 50%

CC1(C)CC(CO[N+](=O)[O-])C(C)(C)N1O (stereo not shown)
survival of the animals [2, 5]: improved the survival of the animals | weight loss (body mass) [2, 5]: reduced loss and improved recovery of body mass | CILI as exemplified by histology scores ([3]; 1, 3, 10 or 30 mg/kg/dose): attenuated CILI | CILI as exemplified by histology scores ([4]; IP in HPCD 2 and 6 hours post exposure, 4, 12, 40, 80 mg/kg/dose): dose-dependently attenuated CILI

NC(CS)C(=O)N1CCCC1C(=O)NC(CS)C(=O)O (stereo not shown)
survival of the animals [2, 6]: improved the survival of the animals | weight loss (body mass) [2, 6]: reduced loss and improved recovery of body mass | CILI as exemplified by histology scores ([3]; 3, 10, 30 or 80 mg/kg/dose): attenuated CILI | CILI as exemplified by histology scores ([4]; in saline 2 and 6 hours post exposure, 3, 10, 30, 80 mg/kg/dose): dose-dependently attenuated CILI
